Assay results: US20190275027A1 (priority 2018, published 2019)
Like-named read-outs stand apart in the source and are kept apart here.

Amino acid sequences for entries named in this document (tags omitted).
UniProt P15381, whole entry: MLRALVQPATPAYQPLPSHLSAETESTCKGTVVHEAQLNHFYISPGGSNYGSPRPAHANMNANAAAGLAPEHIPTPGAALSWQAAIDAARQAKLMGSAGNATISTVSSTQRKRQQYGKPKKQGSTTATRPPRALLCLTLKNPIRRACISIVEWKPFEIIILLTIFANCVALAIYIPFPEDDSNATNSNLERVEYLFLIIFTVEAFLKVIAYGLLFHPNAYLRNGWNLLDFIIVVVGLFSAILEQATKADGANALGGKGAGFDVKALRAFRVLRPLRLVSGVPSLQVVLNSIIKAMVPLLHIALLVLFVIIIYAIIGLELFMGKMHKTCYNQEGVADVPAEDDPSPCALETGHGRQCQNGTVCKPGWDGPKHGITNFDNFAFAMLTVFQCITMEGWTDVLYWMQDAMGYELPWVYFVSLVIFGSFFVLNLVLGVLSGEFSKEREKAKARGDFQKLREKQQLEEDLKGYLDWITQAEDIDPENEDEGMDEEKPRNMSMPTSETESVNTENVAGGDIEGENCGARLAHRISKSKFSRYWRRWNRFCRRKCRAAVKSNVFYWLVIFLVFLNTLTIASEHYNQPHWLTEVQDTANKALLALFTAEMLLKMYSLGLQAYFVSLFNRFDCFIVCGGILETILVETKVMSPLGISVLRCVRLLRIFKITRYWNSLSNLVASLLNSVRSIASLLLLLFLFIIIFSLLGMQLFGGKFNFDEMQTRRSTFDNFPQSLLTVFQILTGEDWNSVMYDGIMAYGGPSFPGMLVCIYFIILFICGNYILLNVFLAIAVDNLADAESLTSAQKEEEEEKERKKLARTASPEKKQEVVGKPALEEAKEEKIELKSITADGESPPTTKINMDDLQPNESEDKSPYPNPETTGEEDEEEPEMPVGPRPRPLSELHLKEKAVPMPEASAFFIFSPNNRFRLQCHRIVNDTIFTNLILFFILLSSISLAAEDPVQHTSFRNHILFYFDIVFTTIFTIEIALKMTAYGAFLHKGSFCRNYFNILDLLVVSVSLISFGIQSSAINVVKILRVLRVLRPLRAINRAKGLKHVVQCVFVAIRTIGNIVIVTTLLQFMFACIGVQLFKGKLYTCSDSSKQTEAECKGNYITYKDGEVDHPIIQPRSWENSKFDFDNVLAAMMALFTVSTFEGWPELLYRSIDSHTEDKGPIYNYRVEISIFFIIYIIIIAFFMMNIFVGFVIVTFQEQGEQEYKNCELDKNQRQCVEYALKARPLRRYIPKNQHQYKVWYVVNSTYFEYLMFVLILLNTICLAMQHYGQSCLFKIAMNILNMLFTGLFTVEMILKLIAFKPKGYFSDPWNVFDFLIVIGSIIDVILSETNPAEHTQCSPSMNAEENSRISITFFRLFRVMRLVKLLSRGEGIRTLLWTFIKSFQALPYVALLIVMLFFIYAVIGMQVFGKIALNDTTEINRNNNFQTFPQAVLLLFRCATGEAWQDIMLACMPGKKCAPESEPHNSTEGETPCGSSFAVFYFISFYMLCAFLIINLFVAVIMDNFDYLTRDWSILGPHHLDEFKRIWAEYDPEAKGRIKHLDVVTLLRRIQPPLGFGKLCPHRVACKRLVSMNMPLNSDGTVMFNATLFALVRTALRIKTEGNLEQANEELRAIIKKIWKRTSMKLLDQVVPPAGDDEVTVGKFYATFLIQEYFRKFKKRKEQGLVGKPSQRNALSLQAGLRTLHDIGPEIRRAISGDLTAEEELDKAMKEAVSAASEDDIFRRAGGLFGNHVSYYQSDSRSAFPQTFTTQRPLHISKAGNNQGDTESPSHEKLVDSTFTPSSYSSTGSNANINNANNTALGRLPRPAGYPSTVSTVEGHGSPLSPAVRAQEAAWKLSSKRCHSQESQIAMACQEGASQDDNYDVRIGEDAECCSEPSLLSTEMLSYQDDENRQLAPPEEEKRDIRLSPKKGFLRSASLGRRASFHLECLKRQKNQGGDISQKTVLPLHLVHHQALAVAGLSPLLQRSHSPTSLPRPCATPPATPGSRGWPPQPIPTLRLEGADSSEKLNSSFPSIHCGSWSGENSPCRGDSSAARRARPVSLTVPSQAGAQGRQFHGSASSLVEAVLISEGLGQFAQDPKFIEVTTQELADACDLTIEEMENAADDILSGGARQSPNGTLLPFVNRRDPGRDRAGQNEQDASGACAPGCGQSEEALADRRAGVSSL

Biological target: L-type channel CaV1.2 (UniProt P15381)
Details: read-out: L-Activity IC50, HEK293 CaV1.2 cells, 83 mM KCl, 2 replicates

How did the IC50 turn out when `COc1ccc2c(c1)CCN(C)[C@@H]2Cc1ccc(Oc2cccc(C[C@@H]3c4cc5c(cc4CCN3C)OCO5)c2)cc1` was run?
Its IC50 is 350 nM.

What about the IC50 (listed as B3-34^SS) of the same compound?
Its IC50 is 730 nM.

How did the IC50 turn out when `COc1ccc2c(c1)CCN(C)[C@@H]2Cc1cccc(Oc2cc(C[C@@H]3c4cc(OC)c(OC)cc4CCN3C)ccc2OC)c1` was run?
The IC50 was 1040 nM.

How did the IC50 turn out when `COc1ccc2c(c1)CCN(C)[C@@H]2Cc1ccc(Oc2ccc(C[C@@H]3c4cc(OC)c(OC)cc4CCN3C)cc2OC)cc1` was run?
Its IC50 is 3080 nM.

`COc1ccc2c(c1)CCN(C)[C@@H]2Cc1ccc(Oc2cc(C[C@@H]3c4ccc(OC)cc4CCN3C)ccc2OC)cc1` was tested. Which IC50 did it give?
The IC50 was 470 nM.

With `COc1ccc2c(c1)CCN(C)[C@@H]2Cc1ccc(OC)c(Oc2ccc(C[C@@H]3c4cc(OC)c(OC)cc4CCN3C)cc2)c1` as the compound, how does the IC50 read?
Its IC50 is 2270 nM.
